We go through two compounds from patent US5244920A, “Pharmaceutical compositions having therapeutical activity based on mercaptoethansulphonic arginine salt” (Schering Spa, priority 1985, dated 1993).

Counter-ions that a name gives are not always drawn.

This series in a line: in vivo. The settings on record: acute toxicity, species and route not given.

`O=S(=O)(O)CCS` [sodium salt, sodium mercaptoethansulphonate, reference compound] yielded an LD50 of 2080 mg/kg.
Under `O=S(=O)(O)CCS` [Example 2, arginine mercaptoethansulphonate] stands greater than 2000 mg/kg.
